One molecule from article PMC5512577 (Nature Communications, 2016) can be followed below.

For this assay, the target named is T1, phosphodiesterase 6 delta subunit (PDE6δ), N-terminal histidine-tagged (UniProt O43924).
T1 construct: PDE6δ, the delta subunit of phosphodiesterase 6; the PDE6δ of PDB 3T5G was the search model for the structure solved here (5F2U); also called PrBP/PDE6δ; source: E. coli BL21-CodonPlus(DE3)-RIL, purified (Ni-NTA, gel filtration)
The assay can be described thus: fluorescence polarisation; stopped flow; kon: 0.2 μM mantGppNHp-loaded Arl protein with increasing PDE6δ; koff: 2 μM PDE6δ with 0.2 μM mantGppNHp-loaded Arl protein mixed with 200-fold excess of unlabelled Arl protein; Kd=koff/kon; 20 °C. The note with it: both partners purified. A general note: Fluorescence polarisation rises when a labelled molecule tumbles more slowly, as on binding a larger partner.

B1: full-length Arl3, C-terminal histidine-tagged, bound to GppNHp or mantGppNHp (natural protein, UniProt Q9WUL7 1-182, looked up)
chain: MGLLSILRKLKSAPDQEVRILLLGLDNAGKTTLLKQLASEDISHITPTQGFNIKSVQSQGFKLNVWDIGGQRKIRPYWRSYFENTDILIYVIDSADRKRFEETGQELTELLEEEKLSCVPVLIFANKQDLLTAAPASEIAEGLNLHTIRDRVWQIQSCSALTGEGVQDGMNWVCKNVNAKKK
notes: Loaded with the non-hydrolysable GTP analogue GppNHp (release assays) or mantGppNHp (kinetics with PDE6δ); Species surmised as mouse from earlier work of the same laboratory; the human protein is P36405; also called Arl3^fl; Arl3·GppNHp; source: E. coli BL21-CodonPlus(DE3)-RIL, purified (Ni-NTA, gel filtration)
Regarding B1, the “fold kon against Arl2^fl” value was around 2 fold and the “fold residence time against Arl3^ΔN” value is 26 fold.
